# Properties, as collected for the OPERA models

Values as listed in the OPERA 2.9 repository of K. Mansouri.

Melting points are in °C.
The boiling point refers to atmospheric pressure (760 mmHg), by the definition of the set.
logP is the log10 of the octanol-water partition coefficient; higher is more lipophilic.
Solubility in water is on a log10 molar scale (set defined at 25 °C).
Vapor pressure is log10 of mmHg; the set covers 15 to 30 °C, mostly 20 to 25 °C.
Henry's law constant (air-water partitioning) is log10 of atm·m3/mol, nominally at 25 °C.
fu is the fraction unbound in human plasma, from 0 to 1.
Clint is human hepatic intrinsic clearance in µL/min per million cells; 0 means that no clearance was seen.

For O=C(CBr)Nc1ccc(Cl)cc1C(=O)c1ccccc1Cl [2-Bromo-N-(4-chloro-2-(2-chlorobenzoyl)phenyl)acetamide] the data give logP 3.7 and water solubility -6.889 (log10 mol/L).
For C1=CCCC=CCCC=CCC1 [1,5,9-Cyclododecatriene] the data give vapor pressure -1.097 (log10 mmHg) and fu 0.04143.
For CCCCP(CCCC)CCCC [Tributylphosphine] the data give logP 3.05 and vapor pressure -1.707 (log10 mmHg).
For CO[C@]12C[C@@H](CO)CN(C)[C@@H]1Cc1c[nH]c3cccc2c13 [10Alpha-Methoxy-9,10-dihydrolysergol] the data give logP 0.8 and water solubility -2.813 (log10 mol/L) and vapor pressure -4.736 (log10 mmHg).
For c1ccc(COP(OCc2ccccc2)OCc2ccccc2)cc1 [Tribenzyl phosphite] the data give MP -5.9 °C and vapor pressure -6.347 (log10 mmHg).
For FC(F)(F)N1C(F)(F)C(F)(F)OC(F)(F)C1(F)F [Perfluoro(N-methylmorpholine)] the data give logP 4.3 and water solubility -5.596 (log10 mol/L) and vapor pressure 2.338 (log10 mmHg).
For O=C(NCCc1ncc(C(F)(F)F)cc1Cl)c1ccccc1C(F)(F)F [Fluopyram] the data give MP 118 °C and BP 318 °C and vapor pressure -8.046 (log10 mmHg) and log H -9.532 (log10 atm·m3/mol).
For CC(COc1ccc(Oc2ccccc2)cc1)Oc1ccccn1 (stereo unspecified) [Pyriproxyfen] the data give BP 318 °C and logP 5.135 and water solubility -5.939 (log10 mol/L) and fu 0.00175 and intrinsic clearance 16.86 µL/min/10^6 cells.
For CCCCCCCCCCCCCCCC[n+]1ccccc1.[Cl-] [Cetylpyridinium chloride] the data give logP 1.71 and vapor pressure -7.385 (log10 mmHg).
For O=C(Cc1ccccc1)OCc1ccccc1 [Benzyl phenylacetate] the data give MP -11.32 °C and logP 3.479 and vapor pressure -3.858 (log10 mmHg).
For COC(=O)c1c(C(F)F)nc(C(F)(F)F)c(C2=NCCS2)c1CC(C)C [Thiazopyr] the data give log H -6.329 (log10 atm·m3/mol) and fu 0.01084 and intrinsic clearance 41.5 µL/min/10^6 cells.
For CC(C)N(CCC(C(N)=O)(c1ccccc1)c1ccccn1)C(C)C (stereo unspecified) [Disopyramide] the data give water solubility -1.701 (log10 mol/L) and fu 0.3101 and intrinsic clearance 0.46 µL/min/10^6 cells.
For CSc1nnc(C(C)(C)C)c(=O)n1N [Metribuzin] the data give fu 0.4888 and intrinsic clearance 1.07 µL/min/10^6 cells.
For ClCc1ccc(CCl)cc1 [alpha,alpha'-Dichloro-p-xylene] the data give logP 3 and water solubility -4.478 (log10 mol/L).
For CCC(=O)O[C@](Cc1ccccc1)(c1ccccc1)[C@H](C)CN(C)C [Propoxyphene] the data give water solubility -4.984 (log10 mol/L) and intrinsic clearance 11 µL/min/10^6 cells.
For CCOC(=O)C(Cl)C(C)=O (stereo unspecified) [Ethyl 2-chloroacetoacetate] the data give logP 1.2 and vapor pressure -0.278 (log10 mmHg).
For CCOC(=O)C1(c2ccccc2)CCN(CCc2ccc(N)cc2)CC1 [Anileridine] the data give logP 3.7 and water solubility -4.454 (log10 mol/L) and fu 0.05.
For c1ccc2sc(SNC3CCCCC3)nc2c1 [N-Cyclohexyl-2-benzothiazolesulfenamide] the data give logP 5 and water solubility -5.917 (log10 mol/L) and vapor pressure -6.469 (log10 mmHg).
For CN1[C@@H]2C[C@@H]3C[C@H]1[C@H](O)[C@H]2O3 [Scopoline] the data give MP 108 °C and BP 248 °C.
For C=CC(=O)OCC1CC2CC1C1CCC(COC(=O)C=C)C21 (stereo unspecified) [Tricyclodecanedimethanol diacrylate] the data give logP 4.6 and water solubility -4.493 (log10 mol/L).
For Brc1cc(Br)c(Oc2cc(Br)c(Br)cc2Br)c(Br)c1 [2,2',4,4',5,6'-Hexabromodiphenyl ether] the data give water solubility -8.869 (log10 mol/L) and vapor pressure -7.545 (log10 mmHg).
For COc1cc(OC)nc(NC(=O)NS(=O)(=O)c2cc(NC=O)ccc2C(=O)N(C)C)n1 [Foramsulfuron] the data give MP 196.8 °C and logP -0.78 and water solubility -2.14 (log10 mol/L) and vapor pressure -12.5 (log10 mmHg) and fu 0.06415 and intrinsic clearance 0 µL/min/10^6 cells.
For CC(=O)OC(c1ccccc1)C(Cl)(Cl)Cl (stereo unspecified) [2,2,2-Trichloro-1-phenylethyl acetate] the data give BP 260 °C and logP 3.518 and water solubility -3.852 (log10 mol/L).
For O=C1C(Cl)=C(Cl)C(=O)C(Cl)=C1Cl [Chloranil] the data give logP 2.3 and vapor pressure -5.209 (log10 mmHg).
For O=C1C[NH2+]CC2c3ccccc3CC[NH+]12.O=P([O-])(O)O.O=P([O-])(O)O (stereo unspecified) the data give logP -1 and vapor pressure -6.103 (log10 mmHg).
For FC=CC(F)(F)F [1,3,3,3-Tetrafluoroprop-1-ene] the data give logP 1.6 and water solubility -2.485 (log10 mol/L).

The first 2 entries again:

{"smiles": "O=C(CBr)Nc1ccc(Cl)cc1C(=O)c1ccccc1Cl", "name": "2-Bromo-N-(4-chloro-2-(2-chlorobenzoyl)phenyl)acetamide", "logP": "3.7", "water solubility (log10 mol/L)": "-6.889"}
{"smiles": "C1=CCCC=CCCC=CCC1", "name": "1,5,9-Cyclododecatriene", "vapor pressure (log10 mmHg)": "-1.097", "fu": "0.04143"}

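These are experimental values that the OPERA curators gathered from public databases to train and test their QSAR models. The files give a single number for a compound and property, which may rest on several reports. Method, purity and exact conditions of the single measurements are not given. Where a salt, mixture or single isomer is drawn, the source does not say that exactly this form was tested. Unmarked limits or estimates from the upstream databases cannot be ruled out.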